# Screening results deposited in PubChem BioAssay by ICCB-Longwood Screening Facility, Harvard Medical School.
# A selection: hits, their analogues and other compounds. The true share with any hit is near 0.43%.
# HCMV NEC inh: inhibitors of HCMV UL50-UL53 nuclear egress complex interaction | HTRF UL50-UL53 interaction, normalized percent inhibition | inhibition, % (test concentration not listed) | 190,000 compounds, 0.15% hits | AID 1918969; in the data active = inhibition above about 27%, passing the limit was not always enough
# GIV-Gai inh: inhibitors of GIV GBA-motif binding to rat Galpha-i3; P08753; Galpha-i3/FITC-GIV peptide fluorescence polarization, 90 min; hits give low values; scaled: aluminum fluoride 0%, vehicle 100%; percent of control (FP), % (test concentration not listed); AID 1224905; hit rate 0.42% among 210,000;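 active = replicate mean at 85% of control or lower, very high polarization wells dropped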;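 note: wells of about 15 µL received 100 nL stock; the first replicate is given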
# Active calls of the source: *; · = no result; ! = a repeat was not active.
1: Cn1cccc1/C=C1\CC/C(=C\c2cccn2C)C1=O
2: CN1c2cc(Cl)ccc2-c2nc(SCC(=O)NC3CCCC3)ncc2S1(=O)=O
3: CN1c2cc(Cl)ccc2-c2nc(SCC(N)=O)ncc2S1(=O)=O
4: CCOc1ccc2ccccc2c1/C=C1\N=C(c2cc([N+](=O)[O-])cc([N+](=O)[O-])c2)OC1=O
5: O=C(CC(Sc1ccccc1)c1ccc2c(c1)OCO2)c1ccco1 (stereo not given)
6: O=C(CSc1ccc2c3c(cccc13)C(=O)c1ccccc1-2)Nc1ccccc1

assay / compound,1,2,3,4,5,6
HCMV NEC inh,·,75.1*,1.9,·,-36.3,·
GIV-Gai inh,-74.8*,103.4,105.3,105.5,99.8,99.2

7: COCCCNC(=O)CSc1ccc2c3c(cccc13)C(=O)c1ccccc1-2
8: COc1cccc(CNC(=O)c2cc(-c3cccs3)nc3ccccc23)c1
9: O=C1NC(=O)N(c2ccc(Br)cc2)C(=O)/C1=C/c1ccc(N2CCOCC2)o1
10: COc1ccc(N2C(=O)NC(=O)/C(=C\c3cc(Br)c(N4CCOCC4)o3)C2=O)cc1
11: CC1(C)CC(=O)c2c(n(S(C)(=O)=O)c3ccc(NS(C)(=O)=O)cc23)C1
12: CCOc1ccc(-n2cc(-c3ccccc3)c3c(NC4CCCCC4)ncnc32)cc1

assay / compound,7,8,9,10,11,12
HCMV NEC inh,·,-6.8,-112.8,0.3,-25.7,·
GIV-Gai inh,-73.3*,103.8,16.3*,110.8,98.6,98.8

13: CN(C)c1ccc(/C=c2/sc3nc(-c4ccc(Cl)cc4)nn3c2=O)cc1
14: CCN(CC)c1ccc(/C=c2\sc3nc(-c4ccco4)nn3c2=O)cc1
15: Oc1ccccc1N=Cc1c(Cl)nc2sccn12
16: O=C(O)COc1ccc2c(c1)C(=NO)c1cc(OCC(=O)O)ccc1-2
17: O=C(O)COc1ccc2c(c1)C(=O)c1cc(OCC(=O)O)ccc1-2
18: CCOc1ccc(CCNC(=O)CCc2cn(Cc3ccccc3F)c3ccccc23)cc1OCC

assay / compound,13,14,15,16,17,18
HCMV NEC inh,·,-13.5,5.3,·,-57.3,·
GIV-Gai inh,113.5,-83.2*,·,106.0,84.0*,107.1

19: O=C(CCN1CCN(C(c2ccccc2)c2ccccc2)CC1)N/N=C/c1ccc(O)cc1O
20: O=c1oc2ccccc2nc1/C=C(\O)c1cccs1
21: O=C(c1ccccc1)c1nc2ccccc2oc1=O
22: Cc1ccccc1-c1noc(-c2cc(-c3cccc(Br)c3)n[nH]2)n1
23: CCOC(=O)C1=C(C)OC(N)=C(C#N)C1c1ccccc1C (stereo not given)
24: CC(=O)OCc1cc(C2C(C#N)=C(N)OC(N)=C2C#N)c(C)cc1C

assay / compound,19,20,21,22,23,24
HCMV NEC inh,-59.8,-23.7,-12.2,-12.5,·,·
GIV-Gai inh,105.2,-68.8*,·,110.4,108.4,-1.1*

# No new results follow: entries from further up.
23: CCOC(=O)C1=C(C)OC(N)=C(C#N)C1c1ccccc1C (stereo not given)
24: CC(=O)OCc1cc(C2C(C#N)=C(N)OC(N)=C2C#N)c(C)cc1C

assay / compound,23,24
HCMV NEC inh,·,·
GIV-Gai inh,108.4,-1.1*

# Remaining list, next part:
25: COC(=O)c1cc(S(=O)(=O)N2CCC(Cc3ccccc3)CC2)cn1C
26: COC(=O)CN1C(=O)Cc2ccccc2C1=O
27: O=C(O)CN1C(=O)Cc2ccccc2C1=O
28: O=c1nc2sc3[nH]c(=O)sc3cc-2s1
29: O=c1[nH]c2ccc(NS(=O)(=O)c3cnc[nH]3)cc2s1
30: COc1cc(/C=C2\Cc3ccccc3C2=O)ccc1O

assay / compound,25,26,27,28,29,30
HCMV NEC inh,-5.7,-8.7,103.0*,-77.7,-4.1,-97.4
GIV-Gai inh,97.9,98.4,·,-46.7*,99.2,139.7

31: CN1CCCc2cc(/C=C3\Cc4ccccc4C3=O)ccc21
32: CCN(CC)c1ccc2cc(-c3csc(C)n3)c(=O)oc2c1
33: CCN(CC)c1ccc2cc(-c3nc(-c4ccccc4)cs3)c(=O)oc2c1
34: CCN(CC)c1ccc2cc(-c3nnc(-c4cccc(Cl)c4)o3)c(=O)oc2c1
35: CCN(CC)c1ccc2cc(-c3nc(-c4cccs4)no3)c(=O)oc2c1
36: CCN(CC)c1ccc2cc(-c3nc(-c4ccccc4F)no3)c(=O)oc2c1

assay / compound,31,32,33,34,35,36
HCMV NEC inh,·,-42.2,·,-44.7,·,·
GIV-Gai inh,-74.8*,·,-31.6*!,7.6*,-20.9*,116.6

37: COc1cc(-c2noc(-c3cc4cccc(C)c4oc3=O)n2)cc(OC)c1OC
38: CCN(CC)c1ccc2cc(-c3nc(-c4cc(OC)c(OC)c(OC)c4)no3)c(=O)oc2c1
39: CCN(CC)c1ccc2cc(-c3csnn3)c(=O)oc2c1
40: CC(C)(C)C1(O)CC(C(F)(F)F)=NN1C(=O)Cc1ccc([N+](=O)[O-])cc1 (stereo not given)
41: Cc1cc(Nc2ccc(F)c(Cl)c2)nc(NC(=O)C(C)(C)C)n1
42: NC(=O)C1(N2CCCCC2)CCN(C(=O)C2CCCCC2)CC1

assay / compound,37,38,39,40,41,42
HCMV NEC inh,·,·,-32.2,-29.1,3.4,-4.2
GIV-Gai inh,101.3,-20.9*,162.3,105.7,100.0,94.8

43: Cc1ccc(-c2noc(C3CCN(C(=O)Nc4ccc(C#N)cc4)CC3)n2)o1
44: COc1ccc(Br)c2c1-c1nc(NC(=O)c3cccc(C)c3)sc1C2
45: COc1ccc(-c2nc(SCC(=O)Nc3ccc4c(c3)OCCO4)c(-c3ccc(F)cc3)[nH]2)cc1
46: O=C(O)CN1C(=O)/C(=C\c2ccc(-c3ccc(Cl)c([N+](=O)[O-])c3)o2)SC1=S
47: CCN1C(=O)/C(=C\c2ccc(-c3ccc(Cl)c(C(=O)O)c3)o2)SC1=S
48: CCn1cc(C(=O)O)c(=O)c2cnc(N3CCNCC3)nc21

assay / compound,43,44,45,46,47,48
HCMV NEC inh,-0.1,-32.4,-19.5,-44.3,-390.6,-16.9
GIV-Gai inh,102.2,109.2,102.6,110.8,-14.8*,·

49: CCCCCCc1cc2cc(-c3csc(Nc4ccc(Cl)cc4Cl)n3)c(=O)oc2cc1O
50: CCCCCCc1cc2cc(-c3nnc(-c4ccc(C)cc4)o3)c(=O)oc2cc1O
51: Cc1ccccc1NC(=O)c1c(NC(=O)c2ccco2)sc2c1CCC2
52: Fc1ccc(-c2cc(-c3ccccc3)c3c(n2)-c2ccccc2OC3)cc1
53: CN(C)/C=C/C=C1/CCc2ccccc2C1=O
54: CCN(CC)c1ccc(/C=C2\CCc3ccccc3C2=O)cc1

assay / compound,49,50,51,52,53,54
HCMV NEC inh,-23.0,2.8,-9.0,-9.3,-28.0,·
GIV-Gai inh,195.9,7.6*,98.0,103.5,-3.8*,253.4

55: Cc1ccc(-c2noc(-c3ccc(N4CCCCC4)c([N+](=O)[O-])c3)n2)cc1
56: CCCCCCCNC(=O)C1CCN(c2ccc(-c3ccccc3)nn2)CC1
57: CC(C)CNC(=O)C1CCN(c2ccc(-c3ccccc3)nn2)CC1
58: COc1cccc2c1N=C1OC=CC1C2OC (stereo not given)
59: COc1ccc2ccccc2c1/C=C1\SC(=Nc2ccccc2)N(N(C)C)C1=O
60: CN(C)N1C(=O)/C(=C/c2cccs2)SC1=Nc1ccccc1

assay / compound,55,56,57,58,59,60
HCMV NEC inh,0.5,31.0*,-39.6,53.7*,·,2.8
GIV-Gai inh,106.0,98.3,102.8,·,107.9,85.5*

61: COc1ccc(S(=O)(=O)N2CCC(c3nc4ccccc4s3)CC2)cc1OC
62: COc1ccc(C2C=C(c3ccc(C)cc3)Nc3c(C(=O)Nc4ccccc4)cnn32)cc1 (stereo not given)
63: COc1ccc(C2=CC(c3cccc(OC)c3)n3ncc(C(=O)Nc4ccc(C)cc4)c3N2)cc1 (stereo not given)
64: NNc1ncnc2cc(-c3ccc(Br)cc3)sc12
65: COc1ccc2c(c1)C1(Nc3ccccc3C(=O)N1c1ccccc1)C(=O)N2 (stereo not given)
66: O=C(O)c1ccc2c3c1cccc3c(=O)n1c3ccccc3nc21

assay / compound,61,62,63,64,65,66
HCMV NEC inh,-5.1,·,1.8,-24.0,·,-57.3
GIV-Gai inh,94.8,-66.7*,107.6,·,109.5,·

67: O=c1c2ccc(NCCO)c3cccc(c32)c2nc3ccccc3n12
68: COc1cc2c(cc1OC)C(c1ccccc1C(=O)O)=NCC2
69: CCOC(=O)c1c(-c2ccc(C)cc2)csc1NC(=O)c1snnc1C
70: CCN(CC)c1ccc(/C=c2\sc3n(c2=O)C(c2ccc(OC)cc2OC)C(C(C)=O)=C(C)N=3)c(OC)c1 (stereo not given)
71: COc1ccc(C2C(C(C)=O)=C(C)N=c3s/c(=C\c4cc(C)n(-c5ccccc5)c4C)c(=O)n32)c(OC)c1 (stereo not given)
72: CCc1ccc(NC(=O)CSc2nc3c(c(=O)n2CC)SC(C)C3)cc1 (stereo not given)

assay / compound,67,68,69,70,71,72
HCMV NEC inh,·,-21.8,-5.4,-19.5,-20.6,·
GIV-Gai inh,-51.6*,·,98.1,84.9*,141.9,99.3

# Looked up above:
# Entry of CCc1ccc(NC(=O)CSc2nc3c(c(=O)n2CC)SC(C)C3)cc1 (stereo not given) under GIV-Gai inh: 99.3
# Entry of CCOC(=O)c1c(-c2ccc(C)cc2)csc1NC(=O)c1snnc1C under GIV-Gai inh: 98.1
# Entry of COc1cc2c(cc1OC)C(c1ccccc1C(=O)O)=NCC2 under HCMV NEC inh: -21.8
# Entry of O=c1c2ccc(NCCO)c3cccc(c32)c2nc3ccccc3n12 under GIV-Gai inh: -51.6*
